Protein sequences, listed by entry. Tags and fused reporters are not part of them. Residues count along the entry.
UniProt P21836, 32-614 limits assumed: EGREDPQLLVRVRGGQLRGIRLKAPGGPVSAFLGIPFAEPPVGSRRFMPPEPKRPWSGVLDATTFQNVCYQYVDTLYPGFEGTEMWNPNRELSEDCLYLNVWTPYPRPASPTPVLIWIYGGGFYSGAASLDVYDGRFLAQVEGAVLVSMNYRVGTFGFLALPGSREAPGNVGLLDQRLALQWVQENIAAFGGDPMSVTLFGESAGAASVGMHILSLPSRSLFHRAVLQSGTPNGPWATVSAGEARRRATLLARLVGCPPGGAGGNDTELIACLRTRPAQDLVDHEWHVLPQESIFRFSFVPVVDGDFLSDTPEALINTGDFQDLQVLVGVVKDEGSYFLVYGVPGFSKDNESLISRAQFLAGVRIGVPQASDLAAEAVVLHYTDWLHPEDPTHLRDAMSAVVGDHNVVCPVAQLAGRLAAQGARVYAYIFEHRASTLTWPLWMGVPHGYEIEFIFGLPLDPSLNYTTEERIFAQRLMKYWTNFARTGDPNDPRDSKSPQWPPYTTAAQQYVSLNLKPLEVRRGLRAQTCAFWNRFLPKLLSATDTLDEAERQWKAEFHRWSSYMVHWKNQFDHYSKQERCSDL

In patent US5654308A (priority 1990, dated 1997):

Molecular target: acetylcholine esterase (Mus musculus, UniProt P21836)
Details: read-out: AChE inhibiting activity IC50; mouse brain homogenate; acetylthiocholine substrate, DTNB, 412 nm; tested form: HCl

SMILES: COc1cc2c(cc1OC)OC(=O)N(CCC1CCN(Cc3ccccc3)CC1)C2
- IC50: 0.2 nM
